Test results reported in US20080312151A1.

Target: FSH receptors
Assay: cell-based or functional assay

Substance | amount of released cAMP (in vitro bioactivity assay) [µg/mL]
Folltropin®-V, a commercial porcine FSH preparation (Bioniche Animal Health) (from UniProt P01219 25-120; P01228 21-129) (ligand) | < 1
recombinant bFSHβCTPα (single chain recombinant bovine FSH analog) (ligand) | 0.001
